Source: PubChem
Hits are enriched below; roughly 2.3% of the tested compounds scored in any of these assays.
A549 tox = kills or reduces viability of A549 cells in Nrf2 counter-screen; AID 504648; A549 ARE-Fluc cells, CellTiter-Fluor viability, 18-24 h; Potency, µM (doses to about 46 µM), inactives show at the top dose activity change, negative = cytotoxicity, actives largely listed as inhibitors; 390,000 tested, 0.16% active; also: potency is read from the fitted curve at half-maximal effect; % is scaled to controls: 0 for no effect and ±100 for the full control effect
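A549 ARE-Fluc cells in 5% FBS OPTI-MEM, 5000 cells/well, rested 2 h then exposed to compounds in concentration-response for 18-24 h at 37 °C. Viability by CellTiter-Fluor fluorescence (Ex 405/Em 525) after 30 min; luciferase luminescence (BugLite, 15 min, RT) read afterwards.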
Mito fusion act = mitochondrial division inhibition or fusion activation | S. cerevisiae fusion-defective mutant growth rescue, CellTiterGlo 48 h | Potency, µM (series often up to 46.1 µM), inactives show top-dose growth rescue (activation), actives largely listed as activators | 320,000 tested, 0.23% active; also: potency is read from the fitted curve at half-maximal effect; % of control where 0% means no effect; nearly all actives have a fitted effect of over 45% in size
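S. cerevisiae fusion-defective temperature-sensitive mutants (e.g. fzo1-1, mgm1-5) grown 48 h at 37C in YPEG (ethanol/glycerol non-fermentable) medium with 23 nl compound per well; growth rescue read as CellTiterGlo luminescence.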
GRP78 ERSR act = inducers of ER stress response in human glioma cells. AID 602332. U87-MG GRP78 promoter luciferase reporter, 16 h. Potency, µM, without a hit: at the top dose activation, hits mostly activators. 420,000 tested, 0.02% active; also: potency is read from the fitted curve at half-maximal effect; series mostly up to about 76 µM; % of control where 0% means no effect; nearly all actives have a fitted effect of over 35% in size
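Stably transfected U87-MG glioma cells carrying a GRP78-based luciferase sensor; 16 h compound incubation. Luminescence end-point read 10 min after Bright-Glo addition at room temperature.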
Nrf2 activator = activates Nrf2 signaling | AREc32 ARE-luciferase reporter (MCF7-derived line), luminescence, 24 h | Potency, µM (titrated, usually from 46.1 µM), without a hit: at the top dose activation, usual class: activators | 410,000 tested, 0.31% active | AID 624171; also: potency is read from the fitted curve at half-maximal effect; % of control where 0% means no effect; nearly all actives have a fitted effect of over 65% in size
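Cells of the AREc32 ARE-luciferase line are plated in OPTI-MEM containing 5% FBS and left overnight at 37 deg C. Compounds are pinned in, incubation continues 24 hr, and firefly luciferase signal is then measured.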
miR-21 reporter = raises the signal of a miR-21 reporter; AID 2288; 340,000 tested, under 10 active; Potency, µM (doses to about 38.3 µM), inactives show at the top dose reporter change, positive = more light; HeLa miR-21 FLuc reporter, luciferase, 48 h; active = well fitted rising curve with a large enough effect; inconclusive = small, poorly fitted or top-dose-only effect; inactive = no such curve, though single readings can be large or run the other way;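 note: % of control where 0% means no effect; miR-21 action dims this reporter so a rising signal means less miR-21 action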
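Compounds were titrated across several concentrations (up to approximately 40 uM) and incubated 48 hours with HeLa miR-21-FLuc reporter cells (miR-21 target sequence downstream of FLuc, endogenous miR-21). Readout was firefly luciferase luminescence after lytic detection reagent.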
Nrf2 inh = blocks Nrf2 signaling; A549 ARE-Fluc reporter, luciferase luminescence, 18-24 h; Potency, µM (series often up to 46 µM), inactives show top-dose activity change, negative = inhibition, actives largely listed as inhibitors; 360,000 tested, 2.1% active; AID 504444; also: potency is read from the fitted curve at half-maximal effect; % is scaled to controls: 0 for no effect and ±100 for the full control effect; nearly all actives have a fitted effect of over 60% in size
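A549 ARE_Fluc cells (5000/well, 5% FBS OPTI-MEM) pre-incubated 2 h, then treated with compounds 18-24 h at 37C/5% CO2 in concentration-response. CellTiter-Fluor viability read first; BugLite luciferase luminescence after 15 min at room temperature gives Nrf2 activity.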
Active calls of the source: *; ? = inconclusive; · = no result given. Unless noted, calls follow the shape of the dose curve; as a rule, active = well fitted curve in the direction sought with a large enough effect; inconclusive = small, poorly fitted or top-dose-only effect, or another doubt; inactive = no such curve, though single readings can be large; an effect the other way counts as inactive or inconclusive.

(1) O=C(Nc1cccc(F)c1)c1cccnc1NCCc1ccccc1
(2) O=C(Nc1ccc(F)cc1)c1cccnc1NCCc1ccccc1
(3) O=C(Nc1cccc(C(F)(F)F)c1)c1cccnc1NCCc1ccccc1
(4) O=C(O)C1=C[C@@H](c2ccc(Br)cc2)C[C@@H](OCc2ccc(CO)cc2)O1
(5) O=C(C1=C[C@H](c2ccc(C(F)(F)F)cc2)C[C@H](OCc2ccc(CO)cc2)O1)N1CCN(Cc2ccc3c(c2)OCO3)CC1
Assay by compound | 1 | 2 | 3 | 4 | 5
A549 tox | -20.5% | -4.4% | -2.4% | 7.2% | ?
Nrf2 inh | 23.1µM* | ? | 4.6% | -4.3% | ?
Nrf2 activator | 2.6% | 0.1% | 0.5% | -0.3% | 4.7%
GRP78 ERSR act | -0.9% | 0.8% | -4.0% | -4.0% | -3.1%
miR-21 reporter | -8.8% | -13.8% | -15.7% | -1.1% | 27.2%
Mito fusion act | ? | 17.8µM* | -11.6% | -2.3% | 6.4%

(6) C#Cc1ccc([C@H]2C=C(C(=O)N3CCN(Cc4ccccc4)CC3)O[C@@H](OCc3ccc(CO)cc3)C2)cc1
(7) O=C(C1=C[C@H](c2csc3ccccc23)C[C@H](OCc2ccc(CO)cc2)O1)N1CCCCCCC1
(8) O=C(Nc1ccccc1)C1=C[C@@H](c2ccc(Br)cc2)C[C@@H](OCc2ccc(CO)cc2)O1
(9) CN1CCN(C(=O)C2=C[C@H](c3csc4ccccc34)C[C@H](OCc3ccc(CO)cc3)O2)CC1
(10) O=C(C1=C[C@@H](c2ccc(Br)cc2)C[C@@H](OCc2ccc(CO)cc2)O1)N1CCN(Cc2ccccc2)CC1
Assay by compound | 6 | 7 | 8 | 9 | 10
A549 tox | -13.7% | -19.0% | -11.4% | -3.2% | ?
Nrf2 inh | ? | 23.1µM* | 18.4µM* | 1.6% | 20.6µM*
Nrf2 activator | 6.7% | 0.8% | 6.9% | -1.1% | -3.4%
GRP78 ERSR act | -4.7% | -4.7% | -3.2% | -2.2% | -1.3%
miR-21 reporter | 3.8% | · | -7.1% | -3.0% | ?
Mito fusion act | 1.4% | · | 9.9% | 2.5% | 4.0%

(11) O=C(C1=C[C@@H](c2ccc(C(F)(F)F)cc2)C[C@@H](OCc2ccc(CO)cc2)O1)N1CCN(Cc2ccc3c(c2)OCO3)CC1
(12) CSc1ccc(C(=O)NCC(c2ccco2)N(C)C)cc1[N+](=O)[O-] (stereo not drawn)
(13) O=C(O)C1C2C=CC(C2)C1C(=O)NCc1cccs1 (stereo not drawn)
(14) Cc1ccc(C(=O)NCc2nnc(SCC(=O)NC(C)c3ccccc3)n2C)cc1 (stereo not drawn)
(15) CC1CCCC(C)N1C(=O)Cn1cc(/C=C2/C(=O)Nc3ccccc32)c2ccccc21 (stereo not drawn)
Assay by compound | 11 | 12 | 13 | 14 | 15
A549 tox | -21.6% | -6.6% | -1.5% | -8.1% | 16.4µM*
Nrf2 inh | 16.4µM* | -3.8% | -5.1% | ? | 18.4µM*
Nrf2 activator | -0.4% | 9.9% | 0.0% | 0.0% | 2.8%
GRP78 ERSR act | -3.6% | 0.3% | -0.1% | -3.5% | -1.4%
miR-21 reporter | ? | -4.7% | -0.4% | 2.5% | 25.9%
Mito fusion act | 10.0% | -1.4% | -1.6% | -3.2% | 28.6%

(16) COc1ccc(CNC(=O)C(C)n2nc(C)c3c(C)n(-c4ccc(C)cc4)nc3c2=O)cc1 (stereo not drawn)
(17) CCC(C(=O)Nc1ccccc1F)n1nc(C)c2c(C)n(-c3ccccc3)nc2c1=O (stereo not drawn)
(18) CCC(C(=O)NC1CC1)n1nc(C)c2c(C)n(-c3ccc(C)cc3)nc2c1=O (stereo not drawn)
(19) Cc1ccc(-n2nc3c(=O)n(CC(=O)NCc4ccccc4)nc(C)c3c2C)cc1
(20) CCC(C(=O)NCc1ccc(OC)c(OC)c1)n1nc(C)c2c(C)n(-c3ccc(C)cc3)nc2c1=O (stereo not drawn)
Assay by compound | 16 | 17 | 18 | 19 | 20
A549 tox | -0.5% | 0.1% | -7.8% | -1.3% | -18.8%
Nrf2 inh | ? | -12.3% | 16.4µM* | ? | 25.9µM*
Nrf2 activator | -0.7% | 0.2% | 2.6% | -1.0% | -0.5%
GRP78 ERSR act | ? | -3.9% | 1.7% | -0.7% | -0.3%
miR-21 reporter | 16.6% | -2.8% | 8.0% | -0.8% | ?
Mito fusion act | -6.3% | ? | 0.0% | -8.6% | ·

(21) CCC(C(=O)Nc1cc(F)ccc1F)n1nc(C)c2c(C)n(-c3ccc(C)cc3)nc2c1=O (stereo not drawn)
(22) Cc1ccc(-n2nc3c(=O)n(CC(=O)NC(C)CCc4ccccc4)nc(C)c3c2C)cc1 (stereo not drawn)
(23) Cc1noc(C)c1C(=O)NCc1cccs1
(24) COc1ccc(C)cc1NC(=O)C1CCCN(S(=O)(=O)c2cccc3nonc23)C1 (stereo not drawn)
(25) COC(=O)C(=O)C1CCc2c(Cl)cc(OC)c(OC)c2C1=O (stereo not drawn)
Assay by compound | 21 | 22 | 23 | 24 | 25
A549 tox | ? | -13.0% | 27.8% | -4.9% | 3.9%
Nrf2 inh | 23.1µM* | 5.17µM* | 3.0% | 3.2% | 15.4%
Nrf2 activator | -0.2% | 0.5% | 0.9% | 0.3% | 0.1%
GRP78 ERSR act | -5.5% | -2.0% | -5.6% | -3.6% | -5.5%
miR-21 reporter | ? | 10.3% | -6.8% | -7.8% | ·
Mito fusion act | 9.2% | 2.4% | 8.7% | -6.7% | ·

Reprinted from the part before: three compounds, then new ones.
(23) Cc1noc(C)c1C(=O)NCc1cccs1
(24) COc1ccc(C)cc1NC(=O)C1CCCN(S(=O)(=O)c2cccc3nonc23)C1 (stereo not drawn)
(25) COC(=O)C(=O)C1CCc2c(Cl)cc(OC)c(OC)c2C1=O (stereo not drawn)
(26) CCOC(=O)c1ccc(N2CCN(c3cccc(OC)c3)CC2)c(NC(=O)Nc2ccc(OCC)cc2)c1
(27) Cc1nn(C(C)C(=O)NCc2cccs2)c(=O)c2nn(-c3ccccc3)c(C)c12 (stereo not drawn)
(28) Cc1ccc(-n2nc3c(=O)n(C(C)C(=O)NCCc4cccs4)nc(C)c3c2C)cc1 (stereo not drawn)
(29) COCC(=O)N1CCC2(CC1)CCN(c1ccccc1)CC2
(30) O=C(/C=C/c1ccc(-c2ccccc2[N+](=O)[O-])o1)c1ccco1
Assay by compound | 23 | 24 | 25 | 26 | 27 | 28 | 29 | 30
A549 tox | 27.8% | -4.9% | 3.9% | ? | -13.3% | -12.4% | · | 13.0%
Nrf2 inh | 3.0% | 3.2% | 15.4% | · | -17.5% | 11.6µM* | · | 18.3%
Nrf2 activator | 0.9% | 0.3% | 0.1% | -1.1% | 0.1% | 3.1% | · | 10µM*
GRP78 ERSR act | -5.6% | -3.6% | -5.5% | -2.4% | -2.6% | -0.7% | 1.2% | 9.9%
miR-21 reporter | -6.8% | -7.8% | · | -3.7% | 3.3% | 28.7% | · | -15.4%
Mito fusion act | 8.7% | -6.7% | · | · | 3.3% | -26.3% | · | -18.0%

(31) NC(=O)NC(CC(=O)NCCCc1ccccc1)c1ccc(Cl)cc1 (stereo not drawn)
(32) c1ccc(CN2CCC(CNc3ncnc4ccccc34)C2)cc1 (stereo not drawn)
(33) Cc1ccc(NC(=O)c2nsc(Cl)c2Cl)cc1
(34) Cc1ccc(NC(=O)c2sc3ccccc3c2Cl)cc1
(35) CC(=O)Nc1ccc(S(=O)(=O)NCCSCc2c(Cl)cccc2Cl)cc1
(36) O=C(NC(=S)Nc1ccc(N2CCCCC2)c(Cl)c1)c1ccc2c(c1)OCCO2
(37) O=C(NC(=S)Nc1ccc(N2CCOCC2)c(Cl)c1)c1cncc(Br)c1
(38) COCCn1c(-c2ccc(OC(F)(F)C(F)C(F)(F)F)cc2)nc2c1c(=O)[nH]c(=O)n2CC(C)C (stereo not drawn)
Assay by compound | 31 | 32 | 33 | 34 | 35 | 36 | 37 | 38
A549 tox | 2.6% | -12.8% | 5.4% | -3.0% | -21.0% | -7.5% | 11.3% | -8.0%
Nrf2 inh | 2.4% | 20.6µM* | ? | ? | 14.6µM* | 9.2µM* | -3.6% | 18.4µM*
Nrf2 activator | 0.1% | 0.2% | 5.62µM* | 10.3% | -0.1% | 2.0% | 0.4% | 10.6%
GRP78 ERSR act | -8.4% | -3.0% | -5.1% | 2.9% | -1.9% | -1.8% | -4.1% | -6.5%
miR-21 reporter | 0.2% | · | -58.3% | -49.0% | 14.9% | 1.7% | -6.5% | 12.5%
Mito fusion act | -4.5% | · | -1.4% | · | 0.8% | 2.1% | -2.7% | 4.3%
